Assay outcomes as filed in PubChem BioAssay.
A549 viability – A549 cytotoxicity, counter-screen for Nrf2 inhibitors. A549 ARE-Fluc cells, CellTiter-Fluor viability, 18-24 h. Potency, µM (series often up to 46 µM), hits mostly inhibitors. hit rate 0.16% among 390,000
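A549 ARE-Fluc cells in 5% FBS OPTI-MEM, 5000 cells/well, rested 2 h then exposed to compounds in concentration-response for 18-24 h at 37 °C. Viability by CellTiter-Fluor fluorescence (Ex 405/Em 525) after 30 min; luciferase luminescence (BugLite, 15 min, RT) read afterwards.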
Nrf2 inh – inhibitors of Nrf2 signaling; A549 ARE-Fluc reporter, luciferase luminescence, 18-24 h; AID 504444; Potency, µM (doses to about 46 µM), most hits filed as inhibitors; hit rate 2.1% among 360,000; also: nearly all actives have a fitted effect of over 60% in size
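A549 ARE_Fluc cells (5000/well, 5% FBS OPTI-MEM) pre-incubated 2 h, then treated with compounds 18-24 h at 37C/5% CO2 in concentration-response. CellTiter-Fluor viability read first; BugLite luciferase luminescence after 15 min at room temperature gives Nrf2 activity.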
miR-21 reporter – miR-21 reporter, rising signal; Potency, µM (titrated, usually from 38.3 µM); AID 2288; 340,000 tested, under 10 active; HeLa miR-21 FLuc reporter, luciferase, 48 h; active = well fitted rising curve with a large enough effect; inconclusive = small, poorly fitted or top-dose-only effect; inactive = no such curve, though single readings can be large or run the other way;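 note: miR-21 action dims this reporter so a rising signal means less miR-21 action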
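Using DMEM plus 10% FBS, HeLa miR-21-FLuc cells are incubated with test compounds (final up to about 40uM) for 48 hours; firefly luciferase signal is then imaged following reagent-mediated lysis.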
Nrf2 ARE act – activates Nrf2 signaling; AREc32 ARE-luciferase reporter (MCF7-derived line), luminescence, 24 h; Potency, µM (titrated, usually from 46.1 µM), actives largely listed as activators; hit rate 0.31% among 410,000; AID 624171; also: nearly all actives have a fitted effect of over 65% in size
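AREc32 cells carrying an ARE-driven firefly luciferase, 1000 cells/well in OPTI-MEM with 5% FBS, dosed after overnight attachment and incubated 24 hr at 37 deg C. Steady-Glo luminescence read after 30 min at RT.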
B2AR arrestin – agonists driving beta-arrestin recruitment to human beta2-adrenergic receptor; beta-arrestin recruitment to beta2AR, cell-based reporter; hit rate 0.02% among 330,000; P07550; Potency, µM (series often up to 46.1 µM), hits mostly activators; AID 492947; also: nearly all actives have a fitted effect of over 65% in size
A number is an active result; . = inactive; ? = inconclusive; / = not tested or not shown. This is a sample that favours compounds with a hit; in the whole collection about 2.2% have one here. Unless noted, calls follow the shape of the dose curve; as a rule, active = well fitted curve in the direction sought with a large enough effect; inconclusive = small, poorly fitted or top-dose-only effect, or another doubt; inactive = no such curve, though single readings can be large; an effect the other way counts as inactive or inconclusive.

SMILES	A549 viability	Nrf2 inh	miR-21 reporter	Nrf2 ARE act	B2AR arrestin
COc1cc(CNc2ccc(O)cc2)cc(Br)c1OCc1ccccc1F	15µM	5.2µM	.	.	.
CCOc1cc(CNc2ccc(O)cc2)cc(Br)c1OCc1ccccc1F	.	?	.	?	.
O=c1c2sc3ccccc3c2n(Cc2cccc(Cl)c2)c(=O)n1Cc1ccccc1	.	.	.	.	/
CC(=O)c1sc2nc(-c3cccs3)ccc2c1N	.	?	.	13µM	.
Nc1c(C(=O)Nc2ccccc2Br)sc2nc(-c3cccs3)ccc12	.	.	.	?	/
Nc1c(C(=O)Nc2ccc(Cl)cc2F)sc2nc(-c3cccs3)ccc12	?	.	.	.	/
Nc1c(C(=O)Nc2nc3ccccc3s2)sc2nc(-c3cccs3)ccc12	?	21µM	?	?	.
CC(=O)c1cc2c(s1)c1cnn(Cc3ccccc3F)c(=O)c1n2C	.	.	/	/	/
C/C(=N\NC(=O)c1cccc(Br)c1)c1ccccn1	?	2.3µM	.	?	.
C/C(=N\NC(=O)C(c1ccccc1)c1ccccc1)c1ccccn1	?	12µM	.	.	.
C/C(=N\NC(=O)C1CCCN(S(=O)(=O)c2ccccc2)C1)c1ccccn1 (centres undefined)	?	12µM	.	.	.
CC(=NNC(=S)Nc1ccc(C)cc1)c1ccccn1	12µM	?	/	.	/
O=C1CCc2cc(S(=O)(=O)Nc3cccnc3)ccc2N1	.	.	/	/	/
COc1ccc(S(=O)(=O)N2CCN(c3nc(-c4cccs4)nc4ccccc34)CC2)cc1OC	.	?	/	/	/
Cc1ccc(C)c(NC(=S)c2ccccn2)c1	.	.	.	.	11µM
C/C(=N\NC(=O)C1COc2ccccc2O1)c1ccccn1 (centres undefined)	?	9.2µM	.	?	.
C/C(=N\NC(=O)C1COc2ccccc2O1)c1ccc(C)o1 (centres undefined)	.	.	.	.	.
Cc1ccc(C)c(Nc2ncnc3onc(C)c23)c1	.	.	.	.	/
Cc1c(C(=O)N2CCCC2)oc2c1-c1nn(CC(=O)NCc3cccc(F)c3)cc1CC2	.	?	.	.	/
Cc1c(C(=O)N2CCCC2)oc2c1-c1nn(CC(=O)NC(C)c3ccccc3)cc1CC2 (centres undefined)	.	18µM	.	.	/
O=[N+]([O-])c1ccc(Sc2ncccn2)c([N+](=O)[O-])c1	?	23µM	?	?	.
O=C(Nc1nc(-c2ccccn2)cs1)c1ccc(Cl)s1	?	2.6µM	.	.	.
O=C(Nc1nc(-c2cc(Cl)sc2Cl)cs1)c1ccccc1	?	?	.	10µM	.
CC(Oc1ccccc1)C(=O)Nc1nc(-c2ccccn2)cs1 (centres undefined)	?	?	/	.	.
CC(Oc1cccc(Cl)c1)C(=O)Nc1nc(-c2ccccn2)cs1 (centres undefined)	?	16µM	/	?	.
SMILES	A549 viability	Nrf2 inh	miR-21 reporter	Nrf2 ARE act	B2AR arrestin
N#CN1CCC(NC(=O)c2cccc(F)c2)CC1	.	.	/	/	/
COc1ccc(NC(=O)C2CCN(C3=NS(=O)(=O)C(c4ccc(C)c(C)c4)=C3C)CC2)c(OC)c1	.	.	.	.	/
O=C(c1ccc(C#Cc2ccccc2)o1)N1CCN(c2ccccn2)CC1	?	18µM	.	.	.
CC1=C(C(=O)OCc2ccc(C)cc2)C(c2cccc(F)c2F)CC(=O)N1 (centres undefined)	.	23µM	.	.	/
O=S(=O)(/C=C/c1ccccc1)Oc1ccccc1	.	.	.	13µM	.
CCN(c1ccccc1)S(=O)(=O)c1cccc(C(=O)OCC(=O)c2c(N)n(C)c(=O)n(C)c2=O)c1	.	?	/	.	/
COc1ccc(N(C)S(=O)(=O)c2cccc(C(=O)OCC(=O)c3c(N)n(C)c(=O)n(C)c3=O)c2)cc1	.	21µM	/	.	.
COc1ccc(OC)c(NC(=O)c2ccc(CSc3nnc(C)s3)cc2)c1	.	26µM	.	.	.
CCCN1CNc2c(c(=O)[nH]c(=S)n2CCc2ccc(Cl)cc2Cl)C1	.	.	/	/	/
COc1cccc2[nH]c3c(N4CCN(Cc5ccc6c(c5)OCO6)CC4)ncnc3c12	/	/	.	/	.
COc1cccc(N2CCN(c3ncnc4c3[nH]c3ccc(F)cc34)CC2C)c1 (centres undefined)	18µM	6.5µM	?	.	.
COc1ccc2c(c1)[nH]c1c(N3CCN(Cc4ccc5c(c4)OCO5)CC3)ncnc12	.	13µM	?	.	.
COc1ccc2c(c1)[nH]c1c(N3CCSCC3)ncnc12	?	21µM	?	.	.
CC(C)(C)c1ccc2c(c1)OC(C(=O)N/N=C\c1ccncc1)CO2 (centres undefined)	.	.	.	.	.
CC(C)(C)c1ccc2c(c1)OC(C(=O)N/N=C\c1ccc[nH]1)CO2 (centres undefined)	8.2µM	5.8µM	.	.	?
Cc1cc(C)c2c(CC(=O)Nc3ccc(S(=O)(=O)N4CCCC(C)C4)cc3)coc2c1 (centres undefined)	.	.	.	.	/
O=C(Nc1ccc(Cl)cc1Cl)c1cc(S(=O)(=O)N2CCC3(CC2)OCCO3)ccc1F	.	/	.	.	/
Nc1nc(Cl)cc(N2CCC(c3cc(-c4ccc(Cl)cc4Cl)n[nH]3)CC2)n1	?	10µM	.	.	.
CCN(CC)S(=O)(=O)c1ccc2oc(C(=O)NCc3ccc(C)cc3)c(C)c2c1	.	16µM	.	.	.
CCN(CC)S(=O)(=O)c1ccc(NC(=O)NCc2noc3ccc(C)cc23)cc1	?	18µM	?	.	/
CCN(Cc1ccccc1)c1ccc(Br)cn1	.	.	/	/	/
Cc1noc(C)c1-c1ccc2ncnc(NCc3ccc(C(F)(F)F)cc3)c2c1	.	?	/	/	/
COc1ccccc1CCNC(=O)c1ccc(NC(=O)N2CC(C)Sc3ccccc32)cc1 (centres undefined)	.	21µM	.	.	/
Nc1c(-c2nc(-c3ccncc3)no2)nnn1CC(=O)Nc1ccccc1	.	.	.	.	/
COC(=O)c1scc(-c2ccc(C)cc2)c1S(=O)(=O)N1CCN(c2cccc(Cl)c2)CC1	.	.	.	.	/
SMILES	A549 viability	Nrf2 inh	miR-21 reporter	Nrf2 ARE act	B2AR arrestin
COC(=O)c1ccc(NC(=O)CC2C(=O)N(c3ccccc3)C(=O)N2Cc2cccs2)cc1 (centres undefined)	.	/	.	.	/
CCc1cc2c(=O)c(-c3ccc4c(c3)OCCO4)c(C)oc2cc1OS(C)(=O)=O	?	23µM	.	.	.
CCc1cc(=O)oc2c(C)c(OS(C)(=O)=O)ccc12	.	.	/	.	/
CCCc1nc2ccccc2c(C(=O)OCC(=O)NCc2ccc3c(c2)OCO3)c1CC	?	21µM	.	.	?
CCc1nc2ccccc2c(C(=O)OCC(=O)NCc2ccc3c(c2)OCO3)c1C	.	.	.	.	.
Cc1ccc(-c2c(C3C4C=CCCC4(C)C(=O)N3Cc3ccccc3)ccc3ccccc23)cc1 (centres undefined)	.	?	/	/	/
